Measured values from paper PMC9616412, “Nebulized fusion inhibitory peptide protects cynomolgus macaques from measles virus infection” (Nature Communications, 2022).

Amino acid sequences for entries named in this document (tags omitted). Residues count along the entry.
UniProt Q786F3, 113-550: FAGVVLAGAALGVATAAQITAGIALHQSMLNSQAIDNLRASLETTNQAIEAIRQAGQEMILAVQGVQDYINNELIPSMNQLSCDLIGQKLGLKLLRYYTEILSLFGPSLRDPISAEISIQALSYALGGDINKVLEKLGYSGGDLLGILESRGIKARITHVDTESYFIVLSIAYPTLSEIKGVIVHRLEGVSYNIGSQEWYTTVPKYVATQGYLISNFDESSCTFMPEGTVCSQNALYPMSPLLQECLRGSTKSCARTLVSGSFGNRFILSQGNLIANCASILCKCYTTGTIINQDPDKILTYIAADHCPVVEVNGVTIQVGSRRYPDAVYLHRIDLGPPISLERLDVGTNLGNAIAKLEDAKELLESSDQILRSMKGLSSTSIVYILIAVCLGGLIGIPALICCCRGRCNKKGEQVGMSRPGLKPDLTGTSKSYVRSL
UniProt Q786F3, 24-112: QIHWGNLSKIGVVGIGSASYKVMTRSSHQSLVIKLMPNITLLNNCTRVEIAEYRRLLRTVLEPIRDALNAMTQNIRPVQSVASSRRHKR

Molecular target: MeV F (IC323 H and F), wild-type (Measles virus, UniProt Q786F3)
Assay: β-gal complementation cell-cell fusion assay, wild-type F
Settings: 5 µM, β-galactosidase complementation

CC[C@H](C)[C@H](NC(=O)[C@H](C)NC(=O)[C@H](CC(N)=O)NC(=O)CNC(=O)[C@H](CC(C)C)NC(=O)[C@H](CC(N)=O)NC(=O)[C@@H](NC(=O)CNC(=O)[C@@H](NC(=O)[C@H](CC(=O)O)NC(=O)[C@H](CC(C)C)NC(=O)[C@H](CCCNC(=N)N)NC(=O)[C@H](CCC(=O)O)NC(=O)[C@H](CC(C)C)NC(=O)[C@H](CO)NC(=O)[C@@H](NC(=O)[C@@H]1CCCN1C(=O)[C@@H]1CCCN1)[C@@H](C)CC)C(C)C)[C@@H](C)O)C(=O)N[C@@H](C)C(=O)N[C@@H](CCCCN)C(=O)N[C@@H](CC(C)C)C(=O)N[C@@H](CCC(=O)O)C(=O)N[C@@H](CC(=O)O)C(=O)N[C@@H](C)C(=O)N[C@@H](CCCCN)C(=O)N[C@@H](CCC(=O)O)C(=O)N[C@@H](CC(C)C)C(=O)N[C@@H](CC(C)C)C(=O)N[C@@H](CCC(=O)O)C(=O)N[C@@H](CO)C(=O)N[C@@H](CO)C(=O)N[C@@H](CC(=O)O)C(=O)N[C@@H](CCC(N)=O)C(=O)N[C@H](C(=O)N[C@@H](CC(C)C)C(=O)N[C@@H](CCCNC(=N)N)C(=O)NCC(=O)N[C@@H](CO)C(=O)NCC(=O)N[C@@H](CO)C(=O)NCC(=O)N[C@@H](CSC1CC(=O)N(CCCC(=O)NCCOCCOCCOCCOCCC(=O)NCCN(CCNC(=O)CCOCCOCCOCCOCCNC(=O)CCCN2C(=O)CC(SC[C@H](NC(=O)CNC(=O)[C@H](CO)NC(=O)CNC(=O)[C@H](CO)NC(=O)CNC(=O)[C@H](CCCNC(=N)N)NC(=O)[C@H](CC(C)C)NC(=O)[C@@H](NC(=O)[C@H](CCC(N)=O)NC(=O)[C@H](CC(=O)O)NC(=O)[C@H](CO)NC(=O)[C@H](CO)NC(=O)[C@H](CCC(=O)O)NC(=O)[C@H](CC(C)C)NC(=O)[C@H](CC(C)C)NC(=O)[C@H](CCC(=O)O)NC(=O)[C@H](CCCCN)NC(=O)[C@H](C)NC(=O)[C@H](CC(=O)O)NC(=O)[C@H](CCC(=O)O)NC(=O)[C@H](CC(C)C)NC(=O)[C@H](CCCCN)NC(=O)[C@H](C)NC(=O)[C@@H](NC(=O)[C@H](C)NC(=O)[C@H](CC(N)=O)NC(=O)CNC(=O)[C@H](CC(C)C)NC(=O)[C@H](CC(N)=O)NC(=O)[C@@H](NC(=O)CNC(=O)[C@@H](NC(=O)[C@H](CC(=O)O)NC(=O)[C@H](CC(C)C)NC(=O)[C@H](CCCNC(=N)N)NC(=O)[C@H](CCC(=O)O)NC(=O)[C@H](CC(C)C)NC(=O)[C@H](CO)NC(=O)[C@@H](NC(=O)[C@@H]3CCCN3C(=O)[C@@H]3CCCN3)[C@@H](C)CC)C(C)C)[C@@H](C)O)[C@@H](C)CC)[C@@H](C)CC)C(=O)O)C2=O)CCO[C@H]2CC[C@@]3(C)C(=CC[C@H]4[C@@H]5CC[C@H]([C@H](C)CCCC(C)C)[C@@]5(C)CC[C@@H]43)C2)C1=O)C(=O)O)[C@@H](C)CC (stereo partly shown) [HRC4]
Effect on membrane fusion mediated by wild-type F: inhibited membrane fusion
